Experimental data taken from ChEMBL document CHEMBL1129378, “Octanol-, chloroform-, and propylene glycol dipelargonat-water partitioning of morphine-6-glucuronide and other related opiates” (J Med Chem, 1996).

Columns and labels:
physchem [1] = experiment: physchem
physchem [2] = experiment: physchem; remark: listed apart in the source

Structure (SMILES)	pKa (physchem [1])	pKa (physchem [2])
CN1CC[C@]23c4c5ccc(O[C@@H]6O[C@H](C(=O)O)[C@@H](O)[C@H](O)[C@H]6O)c4O[C@H]2[C@@H](O)C=C[C@H]3[C@H]1C5 [MORPHINE 3-GLUCURONIDE]	2.86	–
CN1CC[C@]23c4c5ccc(O)c4O[C@H]2[C@@H](O[C@@H]2O[C@H](C(=O)O)[C@@H](O)[C@H](O)[C@H]2O)C=C[C@H]3[C@H]1C5 [MORPHINE GLUCURONIDE]	2.77	8.22
